# Measurements: ChEMBL document CHEMBL3886634, “Substituted 3-haloallylamine inhibitors of ASSAO and uses thereof” (2016)
# Target: T1, Amine oxidase [copper-containing] 3 (Homo sapiens, UniProt Q16853)
# T1 sequence (Q16853 whole entry): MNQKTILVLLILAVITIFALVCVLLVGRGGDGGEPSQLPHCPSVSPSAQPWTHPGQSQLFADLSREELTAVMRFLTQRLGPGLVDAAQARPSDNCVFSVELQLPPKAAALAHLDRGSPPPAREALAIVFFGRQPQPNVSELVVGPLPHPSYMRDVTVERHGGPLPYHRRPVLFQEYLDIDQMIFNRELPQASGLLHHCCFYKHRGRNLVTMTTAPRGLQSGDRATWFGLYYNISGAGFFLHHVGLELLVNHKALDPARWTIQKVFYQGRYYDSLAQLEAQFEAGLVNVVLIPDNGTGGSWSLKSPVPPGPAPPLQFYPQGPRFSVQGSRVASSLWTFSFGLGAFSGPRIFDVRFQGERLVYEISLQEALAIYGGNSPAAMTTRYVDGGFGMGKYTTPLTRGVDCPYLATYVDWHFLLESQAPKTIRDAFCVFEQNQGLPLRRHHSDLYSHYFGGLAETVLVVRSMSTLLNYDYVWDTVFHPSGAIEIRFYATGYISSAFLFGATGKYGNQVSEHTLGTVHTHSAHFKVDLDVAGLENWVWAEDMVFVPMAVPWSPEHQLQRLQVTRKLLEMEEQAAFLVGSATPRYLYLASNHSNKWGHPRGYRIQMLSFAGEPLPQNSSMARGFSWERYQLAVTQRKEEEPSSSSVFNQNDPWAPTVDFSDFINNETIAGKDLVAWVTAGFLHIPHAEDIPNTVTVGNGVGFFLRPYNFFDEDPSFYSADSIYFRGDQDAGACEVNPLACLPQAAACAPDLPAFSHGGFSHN
# Assay: Recombinant SSAO/VAP-1 Inhibtion Assay: Briefly, HMEC cell expressing human SSAO/VAP-1 were grown in several 10 cm petri dishes, once the cells reached 100% confluency, cells were harvested and homogenates were prepared. Cells were washed twice with 5 mL of chilled HES buffer (20 mM HEPES, 1 mM EDTA, 250 mM sucrose, pH 7.4). HES buffer containing 1× protease inhibitor (Sigma Aldrich) and added …
# Format: tissue-based, Tail
smiles,measurement,value
CN(C)S(=O)(=O)c1ccc(OC/C(=C/F)CN)cc1,IC50,< 100 µM
